pEC50: −log10 of the molar value.
Molecular target: T1, CydDC (C-His6-CydDC) (Escherichia coli, UniProt P23886+P29018, P29018:INS2NS)
T1 construct: gene cydD; full-length heterodimer (64 + 63 kDa); CydD with NS insertion between residues 2 and 3 (cloning artefact), CydC with C-terminal SAGGRGSH6 tag kept; plasmid pHX100 in E. coli BL21
Assay: stimulation of ATPase activity (colorimetric Pi release)
Type: biochemical

By UniProt entry, the sequences of proteins in these tests, tags left out. Chains listed by the source or under a name are the forms on record and can include a tag or linker.
UniProt P23886, whole entry, stated change not applied: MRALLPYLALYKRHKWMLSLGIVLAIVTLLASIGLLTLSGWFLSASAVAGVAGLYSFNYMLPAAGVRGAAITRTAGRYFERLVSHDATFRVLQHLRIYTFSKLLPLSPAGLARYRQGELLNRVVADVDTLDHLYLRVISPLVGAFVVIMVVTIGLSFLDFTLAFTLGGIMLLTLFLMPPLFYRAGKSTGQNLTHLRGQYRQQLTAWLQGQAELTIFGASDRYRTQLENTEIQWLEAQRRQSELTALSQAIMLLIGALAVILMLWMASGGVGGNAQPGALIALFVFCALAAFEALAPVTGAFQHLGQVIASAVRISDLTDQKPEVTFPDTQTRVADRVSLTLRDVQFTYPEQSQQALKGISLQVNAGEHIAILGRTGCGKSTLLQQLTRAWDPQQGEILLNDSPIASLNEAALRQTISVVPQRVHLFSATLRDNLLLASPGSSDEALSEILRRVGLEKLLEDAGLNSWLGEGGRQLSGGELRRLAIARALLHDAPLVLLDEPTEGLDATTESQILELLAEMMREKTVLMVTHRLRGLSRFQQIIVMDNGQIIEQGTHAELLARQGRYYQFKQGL
UniProt P29018, other isoform, or with tags, fused parts or gaps INS2NS: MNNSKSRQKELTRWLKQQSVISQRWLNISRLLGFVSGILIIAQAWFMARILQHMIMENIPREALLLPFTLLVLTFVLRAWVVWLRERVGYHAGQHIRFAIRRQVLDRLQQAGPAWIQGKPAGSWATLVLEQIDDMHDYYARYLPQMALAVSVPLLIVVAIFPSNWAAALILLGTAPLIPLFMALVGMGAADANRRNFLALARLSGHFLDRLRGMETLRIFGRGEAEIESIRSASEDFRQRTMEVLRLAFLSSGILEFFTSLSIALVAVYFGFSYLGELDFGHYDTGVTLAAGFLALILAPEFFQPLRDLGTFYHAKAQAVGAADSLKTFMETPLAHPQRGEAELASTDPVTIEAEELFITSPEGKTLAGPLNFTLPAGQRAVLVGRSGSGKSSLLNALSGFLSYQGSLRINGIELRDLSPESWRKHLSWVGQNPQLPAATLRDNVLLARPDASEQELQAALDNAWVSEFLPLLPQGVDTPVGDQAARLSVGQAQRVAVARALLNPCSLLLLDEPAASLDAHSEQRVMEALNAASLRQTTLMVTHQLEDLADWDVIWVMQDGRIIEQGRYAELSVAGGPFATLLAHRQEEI

## C=CC1=C(C)C2=Cc3c(C=C)c(C)c4[n]3[Fe]([Cl])[n]3c(c(C)c(CCC(=O)O)c3=CC3=NC(=C4)C(C)=C3CCC(=O)O)=CC1=N2 [hemin]
  pEC50: ~7.30
